# Experiment: in vivo
# Details: mouse, intravenous injection into the vein of the tail
compound,measurement,value
"CC1(C)S[C@@H]2[C@H](NC(=O)[C@H](NC(=O)N3CCN(S(C)(=O)=O)C3=O)c3ccccc3)C(=O)N2[C@H]1C(=O)O [Example 4, Sodium D(-)-α-[(3-methylsulphonyl-imidazolidin-2-on-1-yl)-carbonylamino]-benzylpencillin]",LD50,3000 mg/kg

# Source: patent publication US3983105A, “Penicillins” (Bayer Aktiengesellschaft, priority 1971, dated 1976)
